From ChEMBL document CHEMBL1800013, “Small molecule inhibitors of SHP2 tyrosine phosphatase discovered by virtual screening” (Bioorg Med Chem Lett, 2011)

Protein sequences, listed by entry. Tags and fused reporters are not part of them. Lines headed by an entry give the natural chain unless they say otherwise; changes in a name come on top.
UniProt Q06124, whole entry: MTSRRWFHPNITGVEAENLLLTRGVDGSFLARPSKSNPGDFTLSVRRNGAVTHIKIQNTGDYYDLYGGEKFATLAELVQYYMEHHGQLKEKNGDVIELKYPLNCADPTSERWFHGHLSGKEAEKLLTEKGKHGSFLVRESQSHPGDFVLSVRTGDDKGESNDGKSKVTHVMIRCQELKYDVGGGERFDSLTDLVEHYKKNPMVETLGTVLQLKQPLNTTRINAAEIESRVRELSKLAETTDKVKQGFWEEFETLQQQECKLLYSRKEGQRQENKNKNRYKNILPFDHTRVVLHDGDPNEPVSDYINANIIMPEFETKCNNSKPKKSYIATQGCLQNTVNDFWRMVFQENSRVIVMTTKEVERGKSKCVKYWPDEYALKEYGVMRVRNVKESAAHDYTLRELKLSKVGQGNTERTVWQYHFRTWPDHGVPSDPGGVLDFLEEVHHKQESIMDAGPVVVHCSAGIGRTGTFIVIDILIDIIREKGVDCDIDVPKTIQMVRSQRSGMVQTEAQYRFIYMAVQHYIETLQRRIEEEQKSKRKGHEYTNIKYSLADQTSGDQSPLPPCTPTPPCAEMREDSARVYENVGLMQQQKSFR

Tests used:
[1] = molecular target: T1, Tyrosine-protein phosphatase non-receptor type 11 (Homo sapiens, UniProt Q06124); experiment: Competitive inhibition at SHP2 catalytic domain assessed as inhibition of pNPP to p-nitrophenol conversion by spectrophotometry
[2] = molecular target: T1, Tyrosine-protein phosphatase non-receptor type 11; experiment: Inhibition of SHP2 catalytic domain assessed as inhibition of pNPP to p-nitrophenol conversion after 5 mins by spectrophotometry
[3] = molecular target: Tyrosine-protein phosphatase non-receptor type 11 (Homo sapiens, UniProt Q06124, K364R); experiment: Inhibition of SHP2 K364R mutant
[4] = molecular target: T1, Tyrosine-protein phosphatase non-receptor type 11; experiment: Reversible inhibition at SHP2 catalytic domain assessed as inhibition of pNPP to p-nitrophenol conversion by spectrophotometry

Cc1cc(S(=O)(=O)O)c(S(=O)(=O)O)cc1N1N=C(C(=O)O)CC1=O
Ki [1]: 4.6 µM
IC50 [2]: 8.3 µM
IC50 [3]: 26 µM
Ki [4]: 4.6 µM
